From PMC3251870 (British Journal of Cancer, 2011)

Chains of the proteins cited; added tags and fusions are not shown.
UniProt Q13547, whole entry, species assumed: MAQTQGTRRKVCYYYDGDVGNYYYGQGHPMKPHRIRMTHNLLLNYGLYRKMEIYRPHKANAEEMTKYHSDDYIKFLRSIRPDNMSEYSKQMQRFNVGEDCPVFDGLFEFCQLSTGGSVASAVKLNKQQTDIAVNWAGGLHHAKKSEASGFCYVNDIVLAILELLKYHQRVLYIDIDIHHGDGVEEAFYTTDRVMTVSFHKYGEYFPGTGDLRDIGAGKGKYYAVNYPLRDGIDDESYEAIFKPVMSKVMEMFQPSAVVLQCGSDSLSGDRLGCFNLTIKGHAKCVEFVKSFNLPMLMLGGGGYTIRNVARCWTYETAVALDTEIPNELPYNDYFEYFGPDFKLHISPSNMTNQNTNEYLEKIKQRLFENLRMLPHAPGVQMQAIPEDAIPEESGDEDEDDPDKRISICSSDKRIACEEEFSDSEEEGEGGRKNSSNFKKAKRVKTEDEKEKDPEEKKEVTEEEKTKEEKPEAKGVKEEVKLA

Legend:
[1] = target: purified recombinant HDAC1 (Homo sapiens, UniProt Q13547); conditions: 400 nM
[2] = target: T1, purified recombinant HDAC8 (Homo sapiens, UniProt Q9BY41)
T1 sequence (Q9BY41 1-377): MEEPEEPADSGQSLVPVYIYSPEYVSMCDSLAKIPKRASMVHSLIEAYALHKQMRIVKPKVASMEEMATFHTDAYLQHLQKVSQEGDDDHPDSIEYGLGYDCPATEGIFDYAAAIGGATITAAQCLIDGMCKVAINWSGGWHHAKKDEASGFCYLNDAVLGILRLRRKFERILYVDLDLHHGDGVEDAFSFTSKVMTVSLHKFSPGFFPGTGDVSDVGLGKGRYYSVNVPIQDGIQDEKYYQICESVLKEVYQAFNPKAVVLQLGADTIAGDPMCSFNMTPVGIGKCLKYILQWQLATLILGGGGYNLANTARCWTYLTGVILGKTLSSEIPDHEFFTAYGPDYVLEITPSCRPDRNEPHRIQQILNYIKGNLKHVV

## CC(/C=C/C(=O)NO)=C\[C@@H](C)C(=O)c1ccc(N(C)C)cc1 [TSA, trichostatin A]
[1]
  inhibition of HDAC1 activity: fully inhibited
[2]; 400 nM
  inhibition of HDAC8 activity: only partly inhibited
[2]; 5 μM
  inhibition of HDAC8 activity: fully eliminated its activity

Where two headings read alike, the source gives them in different places.
